Data: patent US20090068110A1, “ANTIBODIES TO INSULIN-LIKE GROWTH FACTOR RECEPTOR” (Genentech, Inc., priority 2006, published 2009)

Test system: BT474 cells
Test: in vitro ADCC assay, BT474 target cells
Format: cell-based, human
Settings: BT-474 target cells, PBMC effectors, up to 100 μg/mL
Procedure: Blood from normal volunteers was drawn into heparinized syringes, mixed with an equal volume of Hanks' Balanced Salt Solution (HBSS), layered onto LSM™ lymphocyte separation medium (Mediatech, Inc.) and centrifuged at 400×g for 20 minutes. Peripheral blood mononuclear cells (PBMC) at the interface were harvested, washed in HBSS, and resuspended in RPMI 1640™ medium containing 0.1% BSA, 2 mM L-glutamine, 10 mM HEPES, and […] GENTAMICIN™ antibiotic.
SK-N-AS human neuroblastoma cells and BT474 human breast cancer cells were incubated with serially diluted 10H5 and HERCEPTIN® trastuzumab, respectively, in round-bottomed 96-well plates for 30 minutes at 37° C. PBMCs were subsequently added and the incubation was continued for four more hours at 37° C. After four hours, the plates were centrifuged and the supernatants were harvested. Cytotoxicity was measured by lactate dehydrogenase activity released by the supernatants, as determined according to the CYTOTOX-ONE HOMOGENEOUS MEMBRANE INTEGRITY ASSAY PROCEDURE™ technique (Promega).
To determine the percentage of cell-mediated cytotoxicity, the average absorbance was calculated and the background was subtracted as follows: […]

HERCEPTIN® trastuzumab: anti-HER2 antibody used as positive control in ADCC assay
ADCC activity: detectable ADCC
